The test system of the data set is mouse. It is filed as in vivo. The following applies: orally, single dose of 1 g/1 kg.

The values below come from US20030203857A1, “Remedies” (priority 2000, published 2003).

Turning to 3,5-dicaffeoylquinic acid, the “Death after single oral administration” value was “no cases of death”.
